Assay [1] deals with Adrenergic receptors; alpha-1 A & B (Homo sapiens) (UniProt P35348+P35368). The assay can be described thus: Selectivity for human alpha-1B adrenergic receptor over human alpha1A adrenergic receptor. In kind it is protein assay.
The species entered for assay [2] is Homo sapiens. Description: Selectivity for human alpha-1B adrenergic receptor over human Alpha-1D adrenergic receptor.

Protein sequences, listed by entry. Tags and fused reporters are not part of them. Lines headed by an entry give the natural chain unless they say otherwise; changes in a name come on top.
UniProt P35348: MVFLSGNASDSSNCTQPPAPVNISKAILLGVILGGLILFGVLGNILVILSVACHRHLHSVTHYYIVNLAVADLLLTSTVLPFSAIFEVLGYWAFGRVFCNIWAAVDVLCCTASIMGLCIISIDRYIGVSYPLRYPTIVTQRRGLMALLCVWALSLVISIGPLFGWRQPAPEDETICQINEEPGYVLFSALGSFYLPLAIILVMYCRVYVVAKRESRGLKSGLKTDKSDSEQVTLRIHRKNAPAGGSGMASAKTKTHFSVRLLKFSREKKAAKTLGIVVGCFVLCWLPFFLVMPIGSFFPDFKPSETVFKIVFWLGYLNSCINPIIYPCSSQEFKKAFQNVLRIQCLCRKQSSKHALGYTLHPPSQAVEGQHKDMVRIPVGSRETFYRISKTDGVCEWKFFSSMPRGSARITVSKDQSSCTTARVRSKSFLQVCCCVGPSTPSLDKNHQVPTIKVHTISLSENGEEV
UniProt P35368, whole entry, looked up: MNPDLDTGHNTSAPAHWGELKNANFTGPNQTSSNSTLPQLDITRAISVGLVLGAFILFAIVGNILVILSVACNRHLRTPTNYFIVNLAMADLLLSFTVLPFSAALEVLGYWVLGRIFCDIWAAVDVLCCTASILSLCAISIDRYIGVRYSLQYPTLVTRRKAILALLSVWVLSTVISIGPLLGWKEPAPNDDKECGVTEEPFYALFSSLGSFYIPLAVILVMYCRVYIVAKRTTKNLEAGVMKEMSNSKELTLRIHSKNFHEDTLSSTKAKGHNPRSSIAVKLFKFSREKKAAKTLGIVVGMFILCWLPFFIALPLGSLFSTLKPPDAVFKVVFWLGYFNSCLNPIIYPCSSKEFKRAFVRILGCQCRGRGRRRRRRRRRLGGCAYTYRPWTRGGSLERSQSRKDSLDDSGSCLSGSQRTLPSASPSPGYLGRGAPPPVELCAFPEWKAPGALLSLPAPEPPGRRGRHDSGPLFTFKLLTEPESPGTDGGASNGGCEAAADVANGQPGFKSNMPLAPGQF

Take `CC(C)Oc1ccccc1N1CCN(C2CCC(NS(=O)(=O)c3cccc(F)c3)CC2)CC1` (configuration not stated): the Ratio Ki was determined as 23 in assay [1] and 33 in assay [2].
